The results in this text go back to US20040076622A1, “Local production and/or delivery of anti-cancer agents by stromal cell precursors” (Board of Regents, The University of Texas System, priority 2002, published 2004).

For data set [1], the system named is A375SM melanoma. The experiment in a line: Subcutaneous co-injection of A375SM melanoma cells and IFN-β-MSC in nude mice. In kind it is in vivo, mouse. The conditions noted are these: sc 5×10^4 IU every other day.
Data set [2] deals with A375SM melanoma. The experiment in a line: Established A375SM melanoma pulmonary metastasis model, survival. The format is in vivo, mouse. The conditions noted are these: daily subcutaneous injections of 40,000 IU.
The test system of data set [3] is MDA 231 breast carcinoma. The experiment in a line: MDA 231 breast carcinoma lung metastasis model in SCID mice. The format is in vivo, mouse. As to conditions: three iv doses of 10^6 MSC-IFN-β or MSC-Gal; IFN-β 100,000 IU sc every other day.
Data set [4] can be described thus: Serum IFN-β levels after intraperitoneal injection. As to conditions: intraperitoneal injection of 40,000 IU. The format is in vivo, mouse.
The subject of data set [5] is OVAR-3 ovarian carcinoma. The experiment in a line: Intraperitoneal ovarian carcinoma xenograft in SCID mice. The format is in vivo, mouse. As to conditions: OVAR-3 mice; MSC-IFN-β five weekly ip injections of 5×10^5; IFN-β 40,000 IU ip daily day 15-48.
Data set [6] concerns SKOV-3 ovarian carcinoma. The description is as above. In kind it is in vivo, mouse. The conditions noted are these: SKOV-3 mice; MSC-IFN-β five weekly ip injections of 5×10^5; IFN-β 40,000 IU ip daily day 15-48.
The test system of data set [7] is OVAR-3 cells. As to conditions: 5 days, MTS.
Data set [8] has as its system SKOV-3 cells. As to conditions: 5 days, MTS.
The subject of data set [9] is Hey cells. The conditions noted are these: 5 days, MTS.
Data set [10] has as its system K562. The data set can be described thus: Growth of CML cell lines with Intron A or on IFN-α expressing MSC. The format is cell-based. The conditions noted are these: 1000 U Intron A, or coculture on induced MSC.
For data set [11], the system named is BV173. The description is as above. In kind it is cell-based. The conditions noted are these: 1000 U Intron A, or coculture on induced MSC.
The subject of data set [12] is CML blasts. The data set can be described thus: Growth of circulating CML blasts from patients. The format is cell-based, human. As to conditions: blasts from 2 CML patients; 1000 U Intron A, or induced MSC.
Data set [13] deals with MHC class I expression. The experiment in a line: MHC class I upregulation in CML patient samples. The format is cell-based, human. The conditions noted are these: grown with Intron A, or co-cultured on induced MSC feeder layer.
In data set [14] the test system is KBM5 leukemia. The experiment in a line: KBM5 xenograft model of CML in SCID mice, survival. In kind it is in vivo, mouse. The conditions noted are these: 3 times weekly injections; not statistically significant to controls.

As to “IFN-β: recombinant interferon-beta (Avonex, Biogen, Inc.)”, the “Effect on tumor growth and survival” value is “did not have any effect on tumor growth or survival” in [1] and “had no effect” in data set [1] (listed as INF-β). In [2], the “Survival (log rank versus untreated)” value is listed as “no significant effect on survival”. Moreover, in data set [3], the “Survival versus untreated controls” value is reported as “no effect on survival”. The “Time to return of serum IFN-β to baseline levels” value in data set [4] is not above 24 h. In addition, the “Tumor growth and survival” value is “also had an effect” in data set [5] and “increased survival slightly as well (p=0.0343)” in data set [6]. For the same substance, the results for the “IC50, inhibition of proliferation” value in data set [7], in [8] and in data set [9] were 5 IU/ml, 100 IU/ml and 1000 IU/ml, respectively.

“Intron A: pharmacy grade recombinant IFN-α (Intron A, Plough Schering)”: in data set [10], the “Growth of K562 cells” value is “growth inhibited”. Also, in data set [11], the “Growth of BV173 cells” value is reported as “growth inhibited”. Further, the “Growth of CML blasts” value in [12] was “growth inhibited at a similar rate”. Moreover, the “MHC class I expression in patient samples” value in data set [13] is “upregulate Class I”. For the same substance, the “Extension of mice survival” value in [14] was 2-to-5 days.
